Values quoted from earlier work, collected in publication PMC4269383.

Target: Plexin-B1 RBD (Homo sapiens) (UniProt O43157)

- Kd: 6 µM
Substance: Rac1 (from UniProt P63000)
